CendR NRP1 mod: alters CendR peptide binding to human NRP-1; O14786; FAM-RPARPAR peptide binding to NRP-1, fluorescence polarization; inhibition, % at 25 µM; 360,000 compounds, 0.85% hits; AID 602438;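 active = inhibition or corrected inhibition above about 18%, plus a signal ratio from 0.5 to 1.5, limit read from the data, passing the limit was not always enough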
ARFGAP1 inh: inhibits rat ARF GTPase activating protein 1; Q62848; Arfgap1-stimulated ARF1 GTP hydrolysis, GDP FP detection; inhibition, % at 16.5 µM; 360,000 compounds, 0.26% hits; AID 651572;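 active = inhibition above a per-plate limit, mean inhibition of low control wells plus 3 SD, cut at about 25% in these data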;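 note: 0% = DMSO wells with enzyme and 100% = wells lacking Arfgap1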
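Material: rat Arfgap1 catalytic domain, aa 1-136; also added: human ARF1(Δ1-17)-GTP substrate; compound dosing: one concentration, 16.5 µM, DMSO 1.26%; incubation: GTP hydrolysis reaction 2 h at 25 °C; measured by: Tracer-displacement fluorescence polarization with EDTA stop, 620/688 nm; evaluation: % inhibition from polarization; repeats: one replicate per compound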
MC4R barr agon: human MC4R agonism via beta-arrestin. P32245. U2OS MC4R beta-arrestin complementation, luminescence; percent of melanotan II response, DMSO zero. activation, % at 8.9 µM. 360,000 compounds, 0.98% hits;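 active = activation above a per-plate cutoff, the mean activation of sample wells on that plate plus 3 SD, cut at about 8% in these data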
Yeast UUG start: yeast start codon fidelity modulation; activity score, % at 18.7 µM; actives 0.13% (n = 350,000); S. cerevisiae UUG-firefly luciferase reporter, luminescence/redox ratio; AID 602363;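 active means replicate mean at a twofold rise or more, about +100% in these data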;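 further: firefly luciferase made from a UUG start codon reports start codon fidelity; reporter light over untreated wells divided by growth signal over untreated wells; some hits fall short of that in this replicate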
MC4R antag cAMP: blocks human MC4R cAMP signaling | MC4R-expressing cells, MTII-stimulated cAMP, LANCE TR-FRET | inhibition, % at 6.5 µM | 360,000 compounds, 0.48% hits;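 active = inhibition above its plate's cutoff, the mean of tested wells on that plate plus 3 SD, cut at about 29% in these data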;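 note: 0% = Melanotan II alone and 100% = Melanotan II plus saturating MCL0020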
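Test system: U2OS cells stably expressing human melanocortin 4 receptor (MC4R); also added: Melanotan II challenge; compound: 6.5 µM single dose; timing: 30-min compound preincubation, 1-h Melanotan II challenge, 1-h detection, room temperature; signal: Eu-cAMP/anti-cAMP TR-FRET, emission 671 nm; repeats: one well per compound, no replicates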
ASAP1 inh: inhibitors of human ASAP1 ArfGAP activity | Q9ULH1 | ASAP1-stimulated ARF1 GTP hydrolysis, GDP FP detection | inhibition, % at 16.5 µM | 360,000 compounds, 0.19% hits | AID 624377; in the data active = inhibition above about 25%;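 note: 0% = vehicle with enzyme and substrate and 100% = no enzyme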
Numbers without * were called inactive; . = no result. Hits are enriched below; roughly 2.3% of the tested compounds scored in any of these assays.

cpd	ARFGAP1 inh	MC4R barr agon	MC4R antag cAMP	CendR NRP1 mod	ASAP1 inh	Yeast UUG start	Structure
1	-0.1	0.8	-2.1	8.5	0.7	2.2	CC(=O)C1=C(C)N(Cc2ccccc2)C(=O)N[C@H]1CCc1ccccc1
2	-3.2	-1.3	4.1	28.5*	4.1	-17.6	CC[C@@H](C)CN1C(=O)N[C@@H](CCc2ccccc2)C(C(C)=O)=C1C
3	.	.	.	.	.	-18.2	O=C(N[C@H]1CC[C@@H](CCn2cc(-c3ccccn3)nn2)O[C@@H]1CO)c1ccc(F)cc1
4	.	.	.	.	.	-1.6	O=C(Cc1ccncc1)Nc1ccc2c(c1)[C@H]1C[C@@H](CC(=O)N3CCCCC3)O[C@@H](CO)[C@H]1O2
5	-0.5	8.9*	8.9	0.7	3.9	.	CN1CCN(CCCNC(=O)c2ccc(/C=C3\Sc4ccccc4N(Cc4ccccc4F)C3=O)cc2)CC1
6	.	.	.	.	.	-1.9	NCC[C@@H]1CC[C@H](NC(=O)C2CCCC2)[C@H](CO)O1
7	5.1	8.4*	-2.7	-1.0	-0.2	.	CCOC(=O)Cc1cc(-c2ccc(O)cc2)nc2ccc3ccccc3c12
8	-1.1	1.2	3.4	6.5	5.6	.	CCOC(=O)Cc1cc(-c2ccc(OC)cc2)nc2ccc3ccccc3c12
9	.	.	.	.	.	-2.9	C[C@H]1CN([C@@H](C)CO)C(=O)c2cc(NS(=O)(=O)c3cn(C)cn3)ccc2O[C@@H]1CN(C)S(=O)(=O)c1ccc(Cl)cc1
10	13.7	0.0	9.4	0.4	-10.1	.	CCOc1ccc(-c2nc(CN(Cc3ccccc3)C[C@@H]3CCC(=O)N3)c(C)o2)cc1
11	-9.8	-0.4	0.3	30.7*	-10.5	.	Cc1oc(-c2ccc(C(F)(F)F)cc2)nc1CN(Cc1ccccn1)C[C@@H]1CCC(=O)N1
12	.	.	.	.	.	20.8	O=C(c1ccccc1)N1C[C@@H]2[C@H](c3ccccc31)[C@H](CO)N2C(=O)c1cccc(F)c1
13	3.8	1.0	3.6	1.8	10.1	-3.4	COc1ccc(/C=N/n2c(C)nc3ccccc3c2=O)cc1
14	-11.5	9.0*	10.2	-0.6	13.6	-45.7	COc1ccc(/C=N\n2nnc3ccccc32)cc1
15	-6.1	-1.4	1.9	-4.1	-9.6	.	COC(=O)c1sccc1NC(=O)c1ccccc1
16	8.4	-2.6	-2.6	24.9*	8.5	-8.6	COC(=O)c1sccc1NC(=O)c1ccnn1C
17	.	.	.	.	.	3.1	CC(C)NC(=O)N(C)C[C@H]1Oc2ccc(NC(=O)Nc3cccc4ccccc34)cc2C(=O)N([C@@H](C)CO)C[C@H]1C
18	-8.4	-1.0	-0.9	-6.2	4.7	.	Cc1cccc(C)c1NC(=O)CNC(=O)C1CCCN(C(=O)c2ccc(Cl)cc2)C1 (centres undefined)
19	-7.0	-1.3	4.4	18.9*	-4.4	3.3	CCCN(CC(=O)Nc1ccccc1C)C(=O)C1CCCN(C(=O)c2ccc(Cl)cc2)C1 (centres undefined)
20	1.8	-2.8	-1.8	25.7*	-12.2	-5.8	CCCN(CC(=O)Nc1ccccc1C)C(=O)c1ccc(C2SCCS2)cc1
21	.	.	.	.	.	-12.5	COc1ccc(S(=O)(=O)N(C)C[C@@H]2OCCCC[C@@H](C)Oc3ccc(NC(=O)Nc4cccc5ccccc45)cc3C(=O)N([C@H](C)CO)C[C@H]2C)cc1
22	2.2	-0.5	44.1*	0.0	-9.3	3.5	O=C(CNC(=O)/C(=C\c1ccc(F)cc1)NC(=O)c1ccccc1)OCc1ccccc1
23	7.6	-0.5	13.6	4.9	-2.8	-4.1	O=C(CNC(=O)/C(=C\c1ccccc1)NC(=O)c1ccc(Br)cc1)OCc1ccccc1
24	-5.3	-0.8	14.8	-2.7	-3.5	.	CC(=O)N1N=C(c2c(-c3ccccc3)c3cc(C)ccc3[nH]c2=O)CC1c1ccco1 (centres undefined)
25	-7.7	7.2	15.3	23.6*	-5.7	3.7	CC(=O)N1N=C(c2c(-c3ccccc3)c3cc(Br)ccc3[nH]c2=O)CC1c1ccco1 (centres undefined)
26	.	.	.	.	.	19.0	CCCNC(=O)Nc1ccc2c(c1)C(=O)N(C)C[C@H](OC)[C@H](C)CN(C(C)=O)[C@H](C)CO2
27	-1.9	9.7*	21.7	-1.6	4.2	-17.8	COc1c(Cl)cc(Cl)cc1C(=O)Nc1ccc(NC(=O)c2cccs2)cc1
28	12.5	3.1	0.3	1.1	-0.3	-16.4	O=C(Nc1ccc(NC(=O)c2ccc(Cl)cc2Cl)cc1)c1cccs1
29	0.0	-1.3	-12.6	25.5*	-7.7	-6.4	CC1(C(=O)NCc2cccc3ccccc23)CCN1Cc1cccc2c1OCO2 (centres undefined)
30	0.6	-1.0	13.1	-0.8	-6.9	20.3	CC1(C(=O)NCc2cccc3ccccc23)CCN1Cc1ccc2ccccc2c1 (centres undefined)
31	-2.2	-3.3	-6.6	29.6*	10.6	-1.3	O=C(CNC(=O)c1cccs1)N=Nc1c(O)[nH]c2ccc([N+](=O)[O-])cc12
32	6.4	-1.6	-4.9	13.3	-8.0	.	CCCCCCC(=O)N=Nc1c(O)[nH]c2ccc([N+](=O)[O-])cc12

From no. 26 up to 29, as listed above:
cpd	ARFGAP1 inh	MC4R barr agon	MC4R antag cAMP	CendR NRP1 mod	ASAP1 inh	Yeast UUG start	Structure
26	.	.	.	.	.	19.0	CCCNC(=O)Nc1ccc2c(c1)C(=O)N(C)C[C@H](OC)[C@H](C)CN(C(C)=O)[C@H](C)CO2
27	-1.9	9.7*	21.7	-1.6	4.2	-17.8	COc1c(Cl)cc(Cl)cc1C(=O)Nc1ccc(NC(=O)c2cccs2)cc1
28	12.5	3.1	0.3	1.1	-0.3	-16.4	O=C(Nc1ccc(NC(=O)c2ccc(Cl)cc2Cl)cc1)c1cccs1
29	0.0	-1.3	-12.6	25.5*	-7.7	-6.4	CC1(C(=O)NCc2cccc3ccccc23)CCN1Cc1cccc2c1OCO2 (centres undefined)

(more compounds)
cpd	ARFGAP1 inh	MC4R barr agon	MC4R antag cAMP	CendR NRP1 mod	ASAP1 inh	Yeast UUG start	Structure
33	.	.	.	.	.	8.4	CC(C)NC(=O)N(C)C[C@@H]1Oc2c(NC(=O)Nc3ccccc3)cccc2C(=O)N([C@@H](C)CO)C[C@H]1C
34	.	20.3*	0.6	-6.8	.	-9.9	O=C(COc1ccc(/C=N/NC(=O)c2cc3ccccc3o2)cc1Cl)Nc1ccccc1
35	.	26.0*	0.3	24.1	.	-12.9	O=C(C[C@H]1C/C=C\C[C@H](NC(=O)OCC2c3ccccc3-c3ccccc32)C(=O)O[C@H](c2ccccc2)CNC1=O)N[C@H](CO)Cc1ccccc1
36	-3.1	.	.	13.7	49.2*	-22.5	COc1ccc(CCC(=O)Nc2c(-c3ccc(N(C)C)cc3)[nH][nH]c2=O)cc1
37	-3.6	.	.	25.6*	6.0	.	COC1=CC(=O)OC(c2ccc(C(F)(F)F)cc2)C1 (centres undefined)
38	.	.	.	.	.	-14.2	C[C@H](CO)N1C[C@H](C)[C@@H](CN(C)C(=O)Nc2ccc3c(c2)OCO3)Oc2cc(C3=CCCC3)ccc2S1(=O)=O
39	.	.	.	.	.	-0.8	Cc1noc(C)c1S(=O)(=O)N(C)C[C@H]1Oc2ccc(NC(=O)Nc3ccc4c(c3)OCO4)cc2CC(=O)N([C@H](C)CO)C[C@H]1C
40	5.2	-1.7	-10.4	21.8*	6.5	.	O=C(Cc1ccc(F)cc1)N1CCN=C1SCc1ccc([N+](=O)[O-])cc1
41	-1.8	-1.0	-6.4	-9.6	-0.5	-16.6	O=C(Cc1ccccc1)N1CCN=C1SCc1ccc([N+](=O)[O-])cc1
42	.	2.0	-1.2	50.1*	.	.	CCOc1ccc2nc3cc(N=Nc4ccc(N)nc4N)ccc3c(N)c2c1
43	2.6	-2.5	-1.4	22.7*	-13.4	-23.5	Cc1c(OC(C)C(=O)NCc2ccccn2)ccc2c3c(c(=O)oc12)CCC3 (centres undefined)
44	-6.9	-2.5	5.9	-4.5	2.9	-11.4	Cc1c(OCC(=O)NCc2ccccn2)ccc2c3c(c(=O)oc12)CCCC3

Whole records, looked up by structure.
Entry for CCOc1ccc2nc3cc(N=Nc4ccc(N)nc4N)ccc3c(N)c2c1 = ARFGAP1 inh: .; MC4R barr agon: 2.0; MC4R antag cAMP: -1.2; CendR NRP1 mod: 50.1*; ASAP1 inh: .; Yeast UUG start: .
Entry for Cc1c(OC(C)C(=O)NCc2ccccn2)ccc2c3c(c(=O)oc12)CCC3 (centres undefined) = ARFGAP1 inh: 2.6; MC4R barr agon: -2.5; MC4R antag cAMP: -1.4; CendR NRP1 mod: 22.7*; ASAP1 inh: -13.4; Yeast UUG start: -23.5

Screens deposited in PubChem by several laboratories.
